According to patent US4925968A, “N-acyl-N-naphthoylglycines as aldose reductase inhibitors” (American Home Products Corporation, priority 1989, dated 1990):

Test system: aldose reductase
Experiment: galactitol (dulcitol) accumulation in lens, sciatic nerve and diaphragm of galactosemic rats
Type: in vivo, rat (Sprague-Dawley, male)
Settings: 51 mg/kg, 4 days
Description: Such experiments are exemplified hereinbelow after the listing of the following general comments pertaining to these experiments: (a) Four or more groups of six male rats, 50-70 g, Sprague-Dawley strain, were used. The first group, the control group, was fed a mixture of laboratory chow (rodent Laboratory Chow, Purina) and glucose at 20% (w/w %) concentration. […] The test compound was either admixed to the diet or administered by gavage. In experiments involving compound administration in the diet, the average dose administered was calculated from the actual food intake of the animals in each group. The concentration of galactose in the diet of the treated groups was the same as that for the untreated galactosemic group. (b) After four days, the animals were killed by decapitation. The eyeballs were removed and punctured with a razor blade; the freed lenses were rolled gently on filter paper and weighed. The sciatic nerves were dissected as completely as possible and weighed. Both tissues when frozen can be kept up to two weeks before being analyzed for galactitol. […] Only two minor reagent changes were made: (a) The rinsing mixture was an aqueous 5% (w/v) trichloroacetic acid solution and (b) the stock solution was prepared by dissolving 25 mg of dulcitol in 100 mL of an aqueous trichloroacetic acid solution. […]

COC(=O)N(CC(=O)O)C(=S)c1cccc2c(C(F)(F)F)c(OC)ccc12 [Example 18a, N-[[6-Methoxy-5-(trifluoromethyl)-1-naphthalenyl]thioxmethyl]-N-[(methoxy)carbonyl]glycine]
% Lowering dulcitol accumulation IN VIVO, L: N.S.
